The values that follow come from patent US12208075B2, “Antimicrobial compositions containing free fatty acids” (priority 2009, dated 2025).

For this assay, the system named is Staphylococcus aureus RN 4220. In words: Comparative microbicidal suspension test, free vs emulsified fatty acids. Format: cell-based.

On to `CCCCCCCCCCCC(=O)O` [Free lauric acid, lauric acid], for which the “viable count (log number)” value runs as follows: (0 Seconds at 37° C.) 7.87 log; (60 Seconds at 37° C.) 7.35 log; (120 Seconds at 37° C.) 7.77 log; (180 Seconds at 37° C.) 7.41 log; (240 Seconds at 37° C.) 7.98 log; (300 Seconds at 37° C.) 7.23 log. In addition, the “viable count (log number)” value (360 Seconds at 37° C.) was 7.65 log.
